Reference: US20220251105A1, “METHODS OF TREATING A MK2-MEDIATED DISORDER” (Celgene CAR LLC, priority 2019, published 2022)
Where two headings read alike, the source gives them in different places. Marks after values point to notes of the source that are not given here.

Protein sequences, listed by entry. Tags and fused reporters are not part of them. Residues count along the entry.
UniProt P49137, whole entry: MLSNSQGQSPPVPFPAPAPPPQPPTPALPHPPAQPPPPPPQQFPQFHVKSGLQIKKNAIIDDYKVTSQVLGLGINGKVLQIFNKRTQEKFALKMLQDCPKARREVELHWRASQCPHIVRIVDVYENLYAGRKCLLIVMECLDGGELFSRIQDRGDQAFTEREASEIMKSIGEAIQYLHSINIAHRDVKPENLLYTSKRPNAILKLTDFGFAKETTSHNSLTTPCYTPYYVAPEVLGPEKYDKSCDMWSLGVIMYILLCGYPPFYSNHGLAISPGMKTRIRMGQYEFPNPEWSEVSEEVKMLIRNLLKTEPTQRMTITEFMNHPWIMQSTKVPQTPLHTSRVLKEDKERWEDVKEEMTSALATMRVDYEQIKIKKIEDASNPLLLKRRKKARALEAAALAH
UniProt P49138, whole entry: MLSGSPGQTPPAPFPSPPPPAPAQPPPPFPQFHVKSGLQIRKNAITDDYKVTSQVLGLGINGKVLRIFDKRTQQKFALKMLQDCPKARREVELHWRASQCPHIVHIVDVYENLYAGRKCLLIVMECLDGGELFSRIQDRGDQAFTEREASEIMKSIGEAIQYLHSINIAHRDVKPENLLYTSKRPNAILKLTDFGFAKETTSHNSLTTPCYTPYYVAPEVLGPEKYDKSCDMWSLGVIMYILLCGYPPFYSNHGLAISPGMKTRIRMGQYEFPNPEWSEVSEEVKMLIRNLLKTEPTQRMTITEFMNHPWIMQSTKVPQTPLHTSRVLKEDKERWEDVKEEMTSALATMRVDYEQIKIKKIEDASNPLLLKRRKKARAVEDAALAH
UniProt Q80ZF4, 1-386: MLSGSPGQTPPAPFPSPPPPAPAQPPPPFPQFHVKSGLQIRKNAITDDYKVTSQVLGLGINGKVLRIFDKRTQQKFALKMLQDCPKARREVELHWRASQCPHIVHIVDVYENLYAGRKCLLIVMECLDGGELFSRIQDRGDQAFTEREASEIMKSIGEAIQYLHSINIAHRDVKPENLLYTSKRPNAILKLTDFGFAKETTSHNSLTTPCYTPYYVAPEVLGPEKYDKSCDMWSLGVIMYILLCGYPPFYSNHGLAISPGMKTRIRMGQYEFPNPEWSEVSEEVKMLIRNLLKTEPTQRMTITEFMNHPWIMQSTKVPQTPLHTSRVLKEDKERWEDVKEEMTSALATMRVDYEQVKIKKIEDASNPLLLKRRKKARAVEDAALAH

Legend:
MK2 [1] = target: T1, MK2 (Homo sapiens, UniProt P49137); settings: target peptide 133[…]149 (Cys140); 10-fold molar excess, 1 hour, room temperature
MK2 [2] = target: MK2 (Mus musculus, UniProt P49138); settings: 3 mg/kg
MK2 [3] = target: T2, MK2 (Rattus norvegicus, UniProt Q80ZF4); settings: HLA-B27Tg model of AS in rats
MK2 [4] = target: T1, MK2
MK2 [5] = target: T1, MK2; remark: listed apart in the source
MK2 [6] = target: T2, MK2; assay: in vivo
[7] = CAIA, 24 hours following the last dose
[8] = read-out: Mean PBMC Occupancy (%)
[9] = read-out: Mean Spleen Occupancy (%)

CCOCc1cnc(Cl)nc1Oc1ccc2c(ccc3sc4c(c32)NC[C@@H](C)NC4=O)n1 [Compound 1] was tested, and the “Observed Mass of Modified Peptide” value (MK2 [1]) was 2388.43 Da, the “% MK2 Occupied, PBMC” value (MK2 [2]; [7]) was “PBMC: 51 ± 16^c %” and the “% MK2 Occupied, Spleen” value (MK2 [2]; [7]) was “Spleen: 28 ± 16^c %”. For the same molecule, the “% MK2 Occupied, PBMC” value (MK2 [2]; imiquimod model, 8 hours following the last dose) was “PBMC: 38 ± 3^d %”, the “% MK2 Occupied, PBMC” value (MK2 [2]; mannan PsA model, 8 hours following the last dose) was “PBMC: 47 ± 12^d %” and the “TE associated with a greater decrease in paw swelling than etanercept and tofacitinib” value (MK2 [3]) was “approximately 70%”. The “target engagement (TE)” value (MK2 [4]; Part 1, single oral doses 10 mg to 400 mg, by 4 hours) was “dose dependent increase in TE”, the “target engagement (TE)” value (MK2 [4]; Part 2, daily dosing 10 mg to 150 mg) was “dose-dependent increases in TE following doses between 10 mg and 120 mg and plateauing at the 120 mg and 150 mg dose levels” and the “predicted median TE” value (MK2 [5]; 60 mg dose) was “approximately 67%”. For the same molecule, the “predicted median TE” value (MK2 [5]; 150 mg dose) was ~79%, the receptor occupancy at 20 mg/kg (MK2 [6]; [8]) was 53% and the receptor occupancy at 100 mg/kg (MK2 [6]; [8]) was 72 ± 3.7%. For the same molecule, the receptor occupancy at 20 mg/kg (MK2 [6]; [9]) was 23% and the receptor occupancy at 100 mg/kg (MK2 [6]; [9]) was 30 ± 5.6%.
